Experimental data reported in US6790824B1, “Cytokines having neurotrophic activity” (Biopharm Gesellschaft zur biotechnologischen Entwicklung …, priority 1997, dated 2004).

System: embryonic chicken dorsal root ganglia (DRG) neurons
Assay: Survival of dissociated embryonic chick dorsal root ganglia (DRG) neurons, 48 h, counting of surviving neurons
Type: cell-based
Experimental: Dissociated cultures of embryonic chicken dorsal root ganglia (DRG) were generated as described in details by Krieglstein and Unsicker (Neurochem. Res., 21(7) (1996) 843-850). Briefly, DRGs from white Leghorn chick embryos (day 8) were dissected in Ca^2+-Mg^2+ free Hanks' balanced salt solution. After incubation in 0.08% trypsin for 15 min ganglia were dissociated by trituration. Cells were seeded in polyomithin-laminin coated 96-well microtiter plates (A/2 Costar) at a density of 1,200 cells/well. Growth factors were applied at the time of plating in a final volume of […] Dulbecco's Modified Eagle's Medium supplemented with 0.25% bovine serum albumin, N1 additives and 100 U/ml penicillin. As a positive control, nerve growth factor (NGF) was used at the saturating concentration of 5 ng/ml. After 48 h of incubation at 37° C. in a humidified atmosphere containing 5% CO2, cultures were fixed with 2.5% glutaraldehyde. Neuronal cells were identified by their phase-bright and neurite-bearing morphologies and counted within 30% of the total surface area using phase contrast microscopy. […]
At appropriate times (CG: 24 h, DRG: 48 h, SG: 72 h) cultures were fixed by addition of 2.5% glutardialdehyde in phosphate buffered saline (PBS). Numbers of surviving neurons were determined by direct counting of 30% of the surface area using phase contrast microscopy. […]

B1: BMP-2: rh BMP-2, bone morphogenetic protein (protein, UniProt P12643 283-396, looked up)
Bone morphogenetic protein 2: QAKHKQRKRLKSSCKRHPLYVDFSDVGWNDWIVAPPGYHAFYCHGECPFPLADHLNSTNHAIVQTLVNSVNSKIPKACCVPTELSAISMLYLDENEKVVLKNYQDMVVEGCGCR
What does the source list for B1?
survival promoting effect of the single factor (E8 chick DRG, 48 h, factor added alone, dose-response): significant effect; survival of DRG neurons in combination with NT-3 (NT-3 10 ng/ml (saturating), E8, 48 h): significantly augmented the promoting effect of NT-3
